Measured affinities in a library of Ab-91 heavy chain variants

Target: peptide PDVDLGDISGINAS, taken from heptad repeat 2 (HR2) of SARS-CoV-2 spike.

Ab-91 is the parent antibody, in scFv form: VL, then three GGGGS repeats, then VH. The light chain is unchanged in all variants.
VL: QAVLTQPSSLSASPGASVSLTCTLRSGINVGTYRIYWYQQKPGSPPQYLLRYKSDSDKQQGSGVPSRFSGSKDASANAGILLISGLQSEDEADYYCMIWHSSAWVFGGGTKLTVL
VH: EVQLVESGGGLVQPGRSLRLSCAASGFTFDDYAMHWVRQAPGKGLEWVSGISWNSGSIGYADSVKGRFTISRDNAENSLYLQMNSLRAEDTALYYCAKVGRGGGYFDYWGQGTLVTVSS

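Variants in AAYL51 differ from the parent at up to three CDR positions; double and triple changes were sampled at random. AlphaSeq pools MATa yeast showing the antibodies with MATalpha yeast showing the peptide. The frequency of each diploid, read from paired DNA barcodes, reflects how well the two displayed proteins bind. A regression on co-assayed BCL2-family reference pairs converts the normalised counts of each replicate to an apparent Kd. Mating was done three times.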

Each variant is given by its three heavy chain CDRs, as the data file delimits them; those of the parent are GFTFDDYAMH, GISWNSGSIGYADSVK, VGRGGGYFDY. Scale: log10 of Kd in nM, estimated from mating counts; low values are strong binders. "nd" means that the variant was in the library but no mating with the target was seen in that replicate; the authors take this as a sign of poor binding, and no number exists.

CDR-H1,CDR-H2,CDR-H3,"log10 Kd, replicates",empty controls
GFTFDDYAGH,GIQWNSGSIGNADSVK,VGRGGGYFDY,nd nd nd,2/9 (3.52)
GFTFFDYAMH,GISWNSGSVGYHDSVK,VGRGGGYFDY,2.56 3.01 3.07,5/9 (4.85)
GLTFDDYAMH,GISWNSGSIGYADQVK,VLRGGGYFDY,nd nd nd,2/9 (4.53)
GFGFDDYEMH,GISWNSGSIGYAKSVK,VGRGGGYFDY,4.18 nd nd,0/9
GFTFDDYAMH,GISWNSDSIGYADSVK,VGRHGGYFDY,2.24 2.29 1.76,3/9 (4.38)
GFTTDDYAMH,GISWNSGSIGYADSVK,VGRGGGYFDY,nd 6.30 3.83,1/9 (5.36)
GFTFDDYARH,GISHNSGSIGYADSVK,VGRGGGYFFY,5.00 nd nd,2/9 (4.16)
GFKFSDYAMH,GISWNSLSIGYADSVK,VGRGGGYFDY,1.92 1.92 1.50,3/9 (4.57)
GFTFDDYAMH,GISNNSGSIGEADSVK,VGTGGGYFDY,3.80 4.32 nd,2/9 (3.12)
GFTFDDYAMH,GISWDWGTIGYADSVK,VGRGGGYFDY,nd nd nd,4/9 (4.61)
GFTKFDYAMH,GVSWNSGSIGYADSVK,VGRGGGYFDY,nd 5.66 4.54,4/9 (5.11)
GFTFDDYAMH,GINSNSGGIGYADSVK,VGRGGGYFDY,nd nd nd,0/9
GFTFDDYAMH,AISWVSGSIGWADSVK,VGRGGGYFDY,4.28 5.25 nd,4/9 (4.94)
GFTFDDVAMH,LISWNSQSIGYADSVK,VGRGGGYFDY,nd nd nd,0/9
GFTFDDYAMH,GISWNSGSIGYAMSVK,VGRGVGYFDA,2.26 2.82 2.76,0/9
GFTFDDYAMY,GISHNSGSIGYADSVK,VGRGGGYFDK,3.20 nd nd,0/9
GFTFDDYAMH,RISWNSGSIGYADSVK,VWRGGGYIDY,nd nd nd,2/9 (3.27)
GFTFDWYAMH,GISWNKGSIGYADSVV,VGRGGGYFDY,2.65 nd nd,0/9
GFTFDDYAMH,GISWNSGSIGYADSVK,VGRFGHYKDY,nd nd nd,0/9
GFHFDDYAMH,GICWNSGSIGMADSVK,VGRGGGYFDY,nd nd nd,0/9
GFHFDDYAMG,GMSWNSGSIGYADSVK,VGRGGGYFDY,nd nd nd,2/9 (4.03)
GDTFDDYVMH,GIHWNSGSIGYADSVK,VGRGGGYFDY,3.88 nd nd,3/9 (4.39)
GFWFDDYAMH,GISWNSGSIQYADSVK,VGRGGGYFDY,5.17 4.11 nd,6/9 (4.73)
GFTNDDYEMH,GISWNSGSIGYADSVK,VGRGGGYFDY,nd 5.25 nd,1/9 (5.70)
GFTNDDYAMH,GISWNSGSIGYADSNK,VGGGGGYFDY,nd nd nd,1/9 (2.73)
GFTFDDYAMH,GISWNSGSIGYADSVK,VGRIGGYFWY,2.19 2.21 2.11,2/9 (4.00)
GFTFDDYAMH,GISWNSLSIGLADSVK,VGRGGGYFDT,5.81 4.74 nd,4/9 (5.04)
GFTFDDYAMT,GISWNSGSITYADSVK,VGRGGGYDDY,nd nd nd,0/9
GFTFDDYAMH,GISWNSGMIGEADSVK,VGMGGGYFDY,nd nd nd,3/9 (4.35)
GFTFDDGWMH,GISWNSGSIGYADNVK,VGRGGGYFDY,6.13 nd 4.36,4/9 (4.97)
GFTFDDYAMH,GIFWNSGSIGYRDSVK,WGRGGGYFDY,nd nd nd,1/9 (3.31)
GFTFIDYAMH,GISWNSGSIGYGDSVK,VGHGGGYFDY,nd 3.12 nd,4/9 (3.93)

Excerpt, the first 4 entries:

CDR-H1,CDR-H2,CDR-H3,"log10 Kd, replicates",empty controls
GFTFDDYAGH,GIQWNSGSIGNADSVK,VGRGGGYFDY,nd nd nd,2/9 (3.52)
GFTFFDYAMH,GISWNSGSVGYHDSVK,VGRGGGYFDY,2.56 3.01 3.07,5/9 (4.85)
GLTFDDYAMH,GISWNSGSIGYADQVK,VLRGGGYFDY,nd nd nd,2/9 (4.53)
GFGFDDYEMH,GISWNSGSIGYAKSVK,VGRGGGYFDY,4.18 nd nd,0/9

Nonspecific signal, from three strains lacking the peptide, appeared in 21% of pairings of library AAYL51, centred on 4.54 (5% of these signals below 3.26); values are not corrected for it. For each scFv, signals with the empty controls are counted beside the result, with their mean in brackets. In this assay the parent's reference entry averaged 1.86; its copy inside this library read 0.88.

Source: Engelhart et al. 2022 (doi:10.1038/s41597-022-01779-4), MIT Lincoln Laboratory and A-Alpha Bio; data file from the FLAb repository.